Consider one compound from patent US6953800B2, “Use of selective antagonists of the α1B-adrenergic receptor for improvement of sexual dysfunction” (Recordati S.A. Chemical, priority 1999, dated 2005).

This test addresses T1, bovine α1a-adrenoceptor (Bos taurus, UniProt P18130).
T1 construct: expressed in transfected cells; host or cells: COS-7 cells (transient), membranes
T1 sequence (P18130 1-466): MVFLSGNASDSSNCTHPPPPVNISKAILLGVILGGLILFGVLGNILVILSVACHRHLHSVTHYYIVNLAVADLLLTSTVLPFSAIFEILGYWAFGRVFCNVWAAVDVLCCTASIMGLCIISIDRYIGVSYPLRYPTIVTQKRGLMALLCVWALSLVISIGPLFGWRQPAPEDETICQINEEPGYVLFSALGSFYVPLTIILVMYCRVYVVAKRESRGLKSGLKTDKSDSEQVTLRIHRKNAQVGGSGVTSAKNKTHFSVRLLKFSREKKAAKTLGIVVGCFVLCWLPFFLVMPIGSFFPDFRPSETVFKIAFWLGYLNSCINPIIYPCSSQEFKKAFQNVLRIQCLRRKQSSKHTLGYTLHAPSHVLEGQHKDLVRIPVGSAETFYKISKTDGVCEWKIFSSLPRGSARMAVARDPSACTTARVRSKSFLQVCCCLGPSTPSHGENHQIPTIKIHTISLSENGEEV
The test is described as follows: [3H]Prazosin binding, bovine α1a-adrenoceptor in COS-7 cell membranes. Conditions: COS-7 membranes, read-out: Affinity (Ki) α1a, animal cloned receptors.

A word on the Ki: it is the equilibrium dissociation constant of an inhibitor or competing ligand from its target.

Counter-ions that a name gives are not always drawn.

Turning to `COc1cc2nc(N3CCN(C(=O)c4ccco4)[C@@H]4CCCC[C@@H]43)nc(N)c2cc1OC` [Compound B, 4-Amino-6,7-dimethoxy-2-[(4aR,8aS)-4-(2-furoyl)-cis-octahydro-1-quinoxalinyl]-quinazoline hydrochloride], the Ki was found to be 0.0329 µM.
